Laboratory results as given in patent US9956197B2 (priority 2013, dated 2018).

Legend:
[1] = tested on: Lithium-pilocarpine induced status epilepticus; test: Lithium-pilocarpine induced status epilepticus model, intervention study; assay type: in vivo, Sprague-Dawley rats; conditions: iv per table head, injection amount 46 mg/kg
[2] = tested on: Lithium-pilocarpine induced status epilepticus; test: Lithium-pilocarpine induced status epilepticus model, prevention study; assay type: in vivo, Sprague-Dawley rats

SMILES	Intervention (rat, iv) Protection % [1]	Prevention (rat, ip) Protection % ([2]; injection amount 60 mg/kg)	other results
CC(C)[C@H](OC(N)=O)[C@@H](O)c1c(Cl)cccc1Cl	^a46 (66.7%)	^a60 (83.3%)	
CC(OC(N)=O)C(O)c1ccccc1Cl (racemic) [Compound 3, 1-(2-chlorophenyl)-1-hydroxypropyl-2-carbamate]	^a46 (83.3%)		
CCC(OC(N)=O)C(O)c1ccccc1Cl (racemic) [Compound 8, 1-(2-chlorophenyl)-1-hydroxybutyl-2-carbamate]		^a60 (83.3%)	
CNC(=O)OC(C)C(O)c1ccccc1Cl (racemic) [Compound 29, 1-(2-chlorophenyl)-1-hydroxypropyl-2-N-methylcarbamate]		^a60 (100%)	
CCCNC(=O)OC(C)C(O)c1ccccc1Cl (racemic) [Compound 30, 1-(2-chlorophenyl)-1-hydroxypropyl-2-N-propylcarbamate]	^a46 (83.3%)		Prevention (rat, ip) Protection % ([2]; injection amount 73.6 mg/kg): ^a73.6 (50%)
CC(OC(=O)NC1CC1)C(O)c1ccccc1Cl (racemic) [Compound 32, 1-(2-chlorophenyl)-1-hydroxypropyl-2-N-cyclopropylcarbamate]		^a60 (100%)	
C[C@@H](OC(N)=O)[C@@H](O)c1ccccc1Cl [Compound 4, 1-(2-chlorophenyl)-(S)-1-hydroxypropyl-(R)-2-carbamate]		^a60 (50%)	
C[C@H](OC(N)=O)[C@H](O)c1ccccc1Cl [Compound 5, 1-(2-chlorophenyl)-(R)-1-hydroxypropyl-(S)-2-carbamate]	^a46 (66.7%)		
CC[C@H](OC(N)=O)[C@@H](O)c1ccccc1Cl [Compound 6, 1-(2-chlorophenyl)-(S)-1-hydroxybutyl-(S)-2-carbamate]		^a60 (100%)	
CC(C)[C@H](OC(N)=O)[C@@H](O)c1ccccc1Cl [Compound 9, 1-(2-chlorophenyl)-(S)-1-hydroxy-3-methyl-butyl-(S)-2-carbamate]	^a46 (66.7%)	^a60 (83.3%)	
C[C@@H](OC(=O)NC1CC1)[C@H](O)c1ccccc1Cl [Compound 25, 1-(2-chlorophenyl)-(R)-1-hydroxypropyl-(R)-2-N-cyclopropylcarbamate]		^a60 (100%)	
C[C@H](OC(N)=O)[C@@H](O)c1ccc(Cl)cc1Cl [Compound 36, 1-(2,4-dichlorophenyl)-(S)-1-hydroxypropyl-(S)-2-carbamate]	^a46 (66.7%)		Prevention (rat, ip) Protection % ([2]; injection amount 73.6 mg/kg): ^a73.6 (100%)
C[C@H](OC(N)=O)[C@@H](O)c1c(Cl)cccc1Cl [Compound 37, 1-(2,6-dichlorophenyl)-(S)-1-hydroxypropyl-(S)-2-carbamate]			Prevention (rat, ip) Protection % ([2]; injection amount 35 mg/kg): ^a35 (100%)
C[C@H](OC(N)=O)[C@@H](O)c1cccc(Cl)c1Cl [Compound 38, 1-(2,3-dichlorophenyl)-(S)-1-hydroxypropyl-(S)-2-carbamate]			Prevention (rat, ip) Protection % ([2]; injection amount 73.6 mg/kg): ^a73.6 (100%)
CCCC[C@H](OC(N)=O)[C@@H](O)c1ccc(Cl)cc1Cl [Compound 43, 1-(2,4-dichlorophenyl)-(S)-1-hydroxyhexyl-(S)-2-carbamate]	^a46 (16.7%)		
CCCC[C@H](OC(N)=O)[C@@H](O)c1c(Cl)cccc1Cl [Compound 44, 1-(2,6-dichlorophenyl)-(S)-1-hydroxyhexyl-(S)-2-carbamate]	^a46 (83.3%)		
C[C@@H](OC(N)=O)[C@H](O)c1c(Cl)cccc1Cl [Compound 46, 1-(2,6-dichlorophenyl)-(R)-1-hydroxypropyl-(R)-2-carbamate]		^a60 (66.7%)	
